Results on 1 compound are retold here after patent US4909940A, “Extraction of process chemicals from labile biological mixtures with organic alcohols or with halogenated hydrocarbons” (priority 1987, dated 1990).

The subject of one assay is Factor VIII. Put plainly: Coagulation factor activity after treatment and FORANE extraction: Factor VIII. In kind it is biochemical. The conditions noted are these: 2% TNBP or 1% TNBP/1% detergent, 4 hours, then 20% FORANE; compared to untreated.
For another assay, the system named is anti-thrombin III. Put plainly: Activity after treatment and FORANE extraction: anti-thrombin III. The conditions noted are these: 2% TNBP, 4 hours, then 20% FORANE; compared to untreated.
For the next assay, the system named is Factor X. Put plainly: Coagulation factor activity after treatment and FORANE extraction: Factor X. The note with it: 2% TNBP or 1% TNBP/1% detergent, 4 hours, then 20% FORANE; compared to untreated. The format is biochemical.
In another assay the test system is Factor IX. Put plainly: Coagulation factor activity after treatment and FORANE extraction: Factor IX. The note with it: 2% TNBP or 1% TNBP/1% detergent, 4 hours, then 20% FORANE; compared to untreated. In kind it is biochemical.
A further assay has as its system Factor VII. The assay is described as follows: Coagulation factor activity after treatment and FORANE extraction: Factor VII. The format is biochemical. The conditions noted are these: 2% TNBP or 1% TNBP/1% detergent, 4 hours, then 20% FORANE; compared to untreated.
In the next assay the test system is Factor II. The assay is described as follows: Coagulation factor activity after treatment and FORANE extraction: Factor II. The note with it: 2% TNBP or 1% TNBP/1% detergent, 4 hours, then 20% FORANE; compared to untreated. The format is biochemical.

`CCCCOP(=O)(OCCCC)OCCCC`: the “Percent Recovery Factor VIII” value in the assay on Factor VIII is 81%. In addition, in the assay on anti-thrombin III, the “Percent Recovery anti-thrombin III” value is listed as 100%. The “Percent Recovery Factor X” value with Factor X is 98%. Further, the “Percent Recovery Factor IX” value with Factor IX amounted to 89%. For the same compound, in the assay on Factor VII, the “Percent Recovery Factor VII” value turned out to be 95%. Moreover, the “Percent Recovery Factor II” value with Factor II is 105%.
